# Reported properties for industrial, environmental and drug-like chemicals

Data: OPERA 2.9 data sets, kmansouri/OPERA on GitHub.

Melting points are in °C.
Boiling points are in °C, nominally at 760 mmHg.
The octanol-water partition coefficient is given as log10; larger values mean a more lipophilic compound.
Water solubility is log10 of mol/L, nominally at 25 °C; higher is more soluble.
Vapor pressures (log10 mmHg) refer to near room temperature, 15 to 30 °C; higher is more volatile.
Henry's law constant (air-water partitioning) is log10 of atm·m3/mol, nominally at 25 °C.
The unbound fraction in human plasma runs from 0 (all bound) to 1 (all free).
Cells with "–" have no entry in this list.

structure (SMILES),name,mp (°C),boiling point (°C),logP,log solubility (log10 mol/L),vapor pressure (log10 mmHg),Henry's law constant (log10 atm·m3/mol),fraction unbound
CCCCCCOc1ccc(-c2nc(-c3ccccc3)nc(-c3ccccc3)n2)c(O)c1,"2-(4,6-Diphenyl-s-triazin-2-yl)-5-hexyloxyphenol",–,–,7.1,-9.152,-11.41,–,–
CCOC(=O)OCCOc1cc(O)c2c(c1N)C(=O)c1ccccc1C2=O,–,175,–,6.39,-9.22,-10.96,–,–
CCc1ccc(B(O)O)cc1,4-Ethylphenylboronic acid,–,–,2.8,-2.1,-7.599,–,–
Sc1cccc(S)c1,"1,3-Benzenedithiol",27,245,–,–,–,–,–
Cc1ccc(Sc2ccc(C(=O)c3ccccc3)cc2)cc1,"Methanone, [4-[(4-methylphenyl)thio]phenyl]phenyl-",–,–,5.89,-7.615,-5.18,–,–
CCCCCCCCCCCCCC(=O)OCC(COC(=O)CCCCCCCCCCCCC)OC(=O)CCCCCCCCCCCCC,"Tetradecanoic acid, 1,2,3-propanetriyl ester",–,394,–,-8.647,–,–,–
Cn1c(-c2ccccc2)c(/C=C/C2=[N+](C)c3ccccc3C2(C)C)c2ccccc21.[Cl-],–,167,–,1.1,–,–,–,–
CC(C)OC(=O)CCCCC(=O)OC(C)C,Diisopropyl adipate,–,–,3.389,-3.107,–,–,–
Nc1ccc(C(=O)OCCCOC(=O)c2ccc(N)cc2)cc1,"1,3-Propanediol, bis(4-aminobenzoate)",–,–,2.63,-4.895,–,–,–
CCCCN(CCO)CCO,N-Butyldiethanolamine,–,–,0.58,–,-2.001,–,–
CCCCCCCCC(=O)OCC(C)(C)COC(=O)CCCCCCCC,Neopentyl dipelargonate,-9.6,–,–,-8.109,-5.244,–,–
C=C(C)C(=O)OCCCCCCCCCCOC(=O)C(=C)C,"1,10-Decanediol dimethacrylate",-10.8,–,–,-6.35,–,–,–
O=S(=O)([O-])c1cc(O)c2ccc3c(S(=O)(=O)[O-])cc(S(=O)(=O)[O-])c4ccc1c2c34.[Na+].[Na+].[Na+],C.I. Solvent green 7,240,–,-0.68,–,–,–,–
O=C1CC[C@H](N2C(=O)c3ccccc3C2=O)C(=O)O1,–,–,–,0.25,–,-9.666,–,–
Cc1ccc(S(=O)(=O)n2cc(Br)c3cc(F)cnc32)cc1,–,162.4,–,4.2,-6.629,-9.246,–,–
CCCCCCCCCCCCCCCCOC(=O)Oc1c(Cl)cc(C(=O)OCC)cc1Cl,–,45.7,–,9.29,–,-9.299,–,–
CCCCC(CC)C(=O)OCCOCCOCCOC(=O)C(CC)CCCC (configuration not stated),Triethylene glycol bis(2-ethylhexanoate),–,358.9,6.1,-5.366,–,–,–
CN1CCN(C)C1=O,"1,3-Dimethyl-2-imidazolidinone",–,–,-0.3,–,-0.828,–,–
COc1nc(OC)nc(C2C(=O)Nc3c(F)cccc32)n1 (configuration not stated),"3-(4,6-Dimethoxy-1,3,5-triazin-2-yl)-7-fluoroindolin-2-one",–,–,2.1,-6.287,–,–,–
C=C1[C@H](CO)[C@@H](O)C[C@@H]1n1cnc2c(=O)[nH]c(N)nc21,Entecavir,–,–,-0.8,-2.063,–,–,0.87
C=CCCCCCCCCCCCC,1-Tetradecene,–,–,7.08,-7.162,–,-0.608,–

The first 2 entries again:

structure (SMILES),name,mp (°C),boiling point (°C),logP,log solubility (log10 mol/L),vapor pressure (log10 mmHg),Henry's law constant (log10 atm·m3/mol),fraction unbound
CCCCCCOc1ccc(-c2nc(-c3ccccc3)nc(-c3ccccc3)n2)c(O)c1,"2-(4,6-Diphenyl-s-triazin-2-yl)-5-hexyloxyphenol",–,–,7.1,-9.152,-11.41,–,–
CCOC(=O)OCCOc1cc(O)c2c(c1N)C(=O)c1ccccc1C2=O,–,175,–,6.39,-9.22,-10.96,–,–

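The numbers are reported measurements, compiled and curated for the OPERA QSAR suite. The files give a single number for a compound and property, which may rest on several reports. Method, purity and exact conditions of the single measurements are not given. A value may pool stereoisomers or salt forms, and the file does not say which form was measured. Unmarked limits or estimates from the upstream databases cannot be ruled out.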